In the assay the target is 5HT2C receptors (Homo sapiens, UniProt P28335). As to the kind of experiment: Radioreceptor saturation and competition binding, [3H]-mesulergine labeled 5-HT2C receptor membranes from transfected CHO-K1 cells. The settings on record: saturation binding.

By UniProt entry, the sequences of proteins in these tests, tags left out. Residues count along the entry.
UniProt P28335, 33-458: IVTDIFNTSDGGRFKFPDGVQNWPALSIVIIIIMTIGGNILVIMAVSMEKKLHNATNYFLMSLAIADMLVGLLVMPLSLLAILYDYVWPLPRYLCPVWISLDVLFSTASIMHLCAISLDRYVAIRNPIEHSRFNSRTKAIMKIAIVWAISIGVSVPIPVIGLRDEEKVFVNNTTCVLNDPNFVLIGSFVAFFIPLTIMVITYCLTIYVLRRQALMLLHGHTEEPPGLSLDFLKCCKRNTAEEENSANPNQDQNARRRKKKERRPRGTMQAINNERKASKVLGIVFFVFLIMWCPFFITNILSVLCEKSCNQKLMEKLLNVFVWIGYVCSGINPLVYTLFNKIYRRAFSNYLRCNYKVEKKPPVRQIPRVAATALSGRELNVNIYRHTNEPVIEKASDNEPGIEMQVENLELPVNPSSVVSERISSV

The text below walks through data of patent US9862674B2, “Therapeutic compounds and methods of use” (University of Florida Research Foundation, Inc., priority 2007, dated 2018).

As a reminder, the Kd is the concentration at which binding is half-saturated.

For the substance [^3H]-mesulergine, the “Bmax of 5HT2C receptors labeled” value was found to be 8.37±0.15 pmol/mg prot. Under “read-out: KD at 5HT2C receptors”, the Kd turned out to be 0.88 ± 0.03 nM.
